According to publication PMC13070491, “Single-nucleus transcriptomics, pharmacokinetics, and pharmacodynamics of CDK4/6 and mTOR inhibition in a Phase 0/1 trial of recurrent high-grade glioma” (Neuro-Oncology, 2025):

System: GB126, GB239 and GB86 patient-derived cell lines
Test: In vitro single-cell RNA sequencing, analyses across the cell lines (pseudobulk differential gene expression, GSEA, non-cycling cells)
Assay type: cell-based, human
Procedure: Patient-derived glioma stem cell lines (GSCs; GB126, GB86, and GB239) were established from resected GBM tumor tissue. Cell lines were genetically profiled for mutations and copy number aberrations using the IvySeq custom gene panel. […] GB239 was derived from a tumor sample included in this Phase 0 trial (tumor sample: 100-0039). All human GSCs were cultured as described previously.[12]
Following the fifth day of drug exposure, cells were harvested, cryopreserved to be processed at a later point, or immediately processed for single-cell RNA sequencing (10x Genomics, 3’ version 3). The single-cell RNA sequencing data were then processed via cellranger count and Seurat. Briefly, cells were filtered out based on the following criteria: minimum number of genes detected >500 and <10 000 with a maximum percentage of mitochondrial genes set to 10%. Statistical assessment was made between the malignant proportions of each cell state using a 2-sided paired t-test.
Descriptive statistics of the clinical data are included in Table 1. Comparisons between groups were conducted using a 2-sided or paired 2-sided t-test, where indicated. P < .05 was considered significant. Multiple hypothesis test corrections (ie, false discovery rate correction) were applied for snRNAseq pseudobulk differential expression analysis.

## CN(C)C(=O)c1cc2cnc(Nc3ccc(N4CCNCC4)cn3)nc2n1C1CCCC1 [ribo]
Gene CHAT, ribociclib versus control (DMSO)
  log2FoldChange: -1.043
Gene CHEK1, ribociclib versus control (DMSO)
  log2FoldChange: -1.116
Gene CHRDL2, ribociclib versus control (DMSO)
  log2FoldChange: -1.0334
Gene CHRNA5, ribociclib versus control (DMSO)
  log2FoldChange: -1.177
Gene CHST1, ribociclib versus control (DMSO)
  log2FoldChange: -1.011
Gene CKAP2, ribociclib versus control (DMSO)
  log2FoldChange: -1.032
Gene CLEC3A, ribociclib versus control (DMSO)
  log2FoldChange CLEC3A: 1.401
Gene CLGN, ribociclib versus control (DMSO)
  log2FoldChange: -1.046
Gene CLN6, ribociclib versus control (DMSO)
  log2FoldChange: -1.223
Gene CLUL1, ribociclib versus control (DMSO)
  log2FoldChange: -1.122
Gene CNTLN, ribociclib versus control (DMSO)
  log2FoldChange: -1.032
Gene CRYBB3, ribociclib versus control (DMSO)
  log2FoldChange: 1.002
Gene CSTF3-DT, ribociclib versus control (DMSO)
  log2FoldChange: -1.225
Gene CTCFL, ribociclib versus control (DMSO)
  log2FoldChange: -1.08
Gene CTSV, ribociclib versus control (DMSO)
  log2FoldChange: -1.015
Gene DDB2, ribociclib versus control (DMSO)
  log2FoldChange: -1.1772
Gene DDIAS, ribociclib versus control (DMSO)
  log2FoldChange: -1.022
Gene DEK, ribociclib versus control (DMSO)
  log2FoldChange: -1.375
Gene DEPDC1-AS1, ribociclib versus control (DMSO)
  log2FoldChange: -1.123
Gene DHRS13, ribociclib versus control (DMSO)
  log2FoldChange: -1.029
Gene DNAJC12, ribociclib versus control (DMSO)
  log2FoldChange DNAJC12: 1.413
Gene DNMT1, ribociclib versus control (DMSO)
  log2FoldChange: -1.1
Gene DNMT3B, ribociclib versus control (DMSO)
  log2FoldChange: -1.0461
Gene DSCC1, ribociclib versus control (DMSO)
  log2FoldChange: -1.04
Gene ELF4, ribociclib versus control (DMSO)
  log2FoldChange: -1.322
Gene EPPK1, ribociclib versus control (DMSO)
  log2FoldChange EPPK1: 1.4048
Gene ETV7, ribociclib versus control (DMSO)
  log2FoldChange: -1.664
Gene EXOSC9, ribociclib versus control (DMSO)
  log2FoldChange: -1.023
Gene EZH2, ribociclib versus control (DMSO)
  log2FoldChange: -1.144
Gene FABP4, ribociclib versus control (DMSO)
  log2FoldChange FABP4: 1.432
Gene FAM72B, ribociclib versus control (DMSO)
  log2FoldChange: -1.051
Gene GAREM2, ribociclib versus control (DMSO)
  log2FoldChange: -1.096
Gene HIST1H2BC, ribociclib versus control (DMSO)
  log2FoldChange: -1.077
Gene HLA-DRA, ribociclib versus control (DMSO)
  log2FoldChange HLA-DRA: 1.429
Gene HMGB1, ribociclib versus control (DMSO)
  log2FoldChange: -1.03
Gene HOGA1, ribociclib versus control (DMSO)
  log2FoldChange HOGA1: 1.382
Gene HTR1D, ribociclib versus control (DMSO)
  log2FoldChange: -1.006
Gene HTR2A, ribociclib versus control (DMSO)
  log2FoldChange HTR2A: 1.369
Gene ICA1, ribociclib versus control (DMSO)
  log2FoldChange: 1.015
Gene KCNT1, ribociclib versus control (DMSO)
  log2FoldChange: -1.142
Gene KIAA1211L, ribociclib versus control (DMSO)
  log2FoldChange: 1.012
Gene KIF20B, ribociclib versus control (DMSO)
  log2FoldChange: -1.0525
Gene KPNA2, ribociclib versus control (DMSO)
  log2FoldChange: -1.137
Gene LAMC3, ribociclib versus control (DMSO)
  log2FoldChange: -1.019
Gene LINC00299, ribociclib versus control (DMSO)
  log2FoldChange LINC00299: 1.338
Gene LINC00452, ribociclib versus control (DMSO)
  log2FoldChange LINC00452: 1.339
Gene LINC00710, ribociclib versus control (DMSO)
  log2FoldChange LINC00710: 1.422
Gene LINC00836, ribociclib versus control (DMSO)
  log2FoldChange: 1.012
Gene LINC01208, ribociclib versus control (DMSO)
  log2FoldChange LINC01208: 1.412
Gene LINC01954, ribociclib versus control (DMSO)
  log2FoldChange LINC01954: 1.371
Gene LINC02290, ribociclib versus control (DMSO)
  log2FoldChange: 1.014
Gene LINC02767, ribociclib versus control (DMSO)
  log2FoldChange LINC02767: 1.39
Gene LINC02775, ribociclib versus control (DMSO)
  log2FoldChange: 1.012
Gene LKAAEAR1, ribociclib versus control (DMSO)
  log2FoldChange: -1.045
Gene LMNB2, ribociclib versus control (DMSO)
  log2FoldChange: -1.082
Gene LRP1, ribociclib versus control (DMSO)
  log2FoldChange: 1.0088
Gene LST1, ribociclib versus control (DMSO)
  log2FoldChange LST1: 1.3665
Gene MCM6, ribociclib versus control (DMSO)
  log2FoldChange: -1.226
Gene MYO7A, ribociclib versus control (DMSO)
  log2FoldChange MYO7A: 1.39
Gene MYO19, ribociclib versus control (DMSO)
  log2FoldChange: -1.01
Gene NMUR2, ribociclib versus control (DMSO)
  log2FoldChange NMUR2: 1.413
Gene NNMT, ribociclib versus control (DMSO)
  log2FoldChange NNMT: 1.392
Gene OVCH2, ribociclib versus control (DMSO)
  log2FoldChange OVCH2: 1.393
Gene PAQR4, ribociclib versus control (DMSO)
  log2FoldChange: -1.3195
Gene PCDH11X, ribociclib versus control (DMSO)
  log2FoldChange: 1.0028
Gene PIM1, ribociclib versus control (DMSO)
  log2FoldChange: -1.008
Gene POGLUT3, ribociclib versus control (DMSO)
  log2FoldChange: -1.083
Gene POLE2, ribociclib versus control (DMSO)
  log2FoldChange: -1.137
Gene PRC1-AS1, ribociclib versus control (DMSO)
  log2FoldChange: -1.1038
Gene PRTFDC1, ribociclib versus control (DMSO)
  log2FoldChange: -1.034
Gene PURPL, ribociclib versus control (DMSO)
  log2FoldChange: -1.008
Gene RAB39A, ribociclib versus control (DMSO)
  log2FoldChange: -1.006
Gene RFC2, ribociclib versus control (DMSO)
  log2FoldChange: -1.015
Gene RFC5, ribociclib versus control (DMSO)
  log2FoldChange: -1.124
Gene RMI2, ribociclib versus control (DMSO)
  log2FoldChange: -1.054
Gene RNASEH2A, ribociclib versus control (DMSO)
  log2FoldChange: -1.0155
Gene RUSC1, ribociclib versus control (DMSO)
  log2FoldChange: -1.029
Gene SEMA3C, ribociclib versus control (DMSO)
  log2FoldChange: 1.014
Gene SERPINI2, ribociclib versus control (DMSO)
  log2FoldChange: 1.018
Gene SHISA3, ribociclib versus control (DMSO)
  log2FoldChange: -1.036
Gene SKP2, ribociclib versus control (DMSO)
  log2FoldChange: -1.016
Gene SLC30A2, ribociclib versus control (DMSO)
  log2FoldChange: 1.0021
Gene SMCO4, ribociclib versus control (DMSO)
  log2FoldChange: -1.118
Gene SRGAP3-AS4, ribociclib versus control (DMSO)
  log2FoldChange: 1.012
Gene SSRP1, ribociclib versus control (DMSO)
  log2FoldChange: -1.137
Gene STMN4, ribociclib versus control (DMSO)
  log2FoldChange STMN4: 1.398
Gene STOML3, ribociclib versus control (DMSO)
  log2FoldChange: -1.027
Gene SVIP, ribociclib versus control (DMSO)
  log2FoldChange: -1.1001
Gene TCAF2, ribociclib versus control (DMSO)
  log2FoldChange TCAF2: 1.391
Gene TFDP1, ribociclib versus control (DMSO)
  log2FoldChange: -1.008
Gene TFPI2, ribociclib versus control (DMSO)
  log2FoldChange: -1.099
Gene TMEM132B, ribociclib versus control (DMSO)
  log2FoldChange: 1.009
Gene TRAPPC3L, ribociclib versus control (DMSO)
  log2FoldChange: 1.013
Gene TTPA, ribociclib versus control (DMSO)
  log2FoldChange: -1.03
Gene TUBB4B, ribociclib versus control (DMSO)
  log2FoldChange: -1.232
Gene TUBG1, ribociclib versus control (DMSO)
  log2FoldChange: -1.028
Gene WNT9B, ribociclib versus control (DMSO)
  log2FoldChange WNT9B: 1.386
Gene Z94721.3, ribociclib versus control (DMSO)
  log2FoldChange: -1.366
Gene ZBBX, ribociclib versus control (DMSO)
  log2FoldChange: 1.016
